Laboratory results taken from BindingDB's records for doi:10.1016/0028-3908(95)00017-z (Merz, 1995).
Several values for one entry are separate records, joined by “and”; a condition that tells them apart may be missing. Identical values can stand only once.

Molecular target: Glutamate receptor ionotropic, NMDA 1 (Rattus norvegicus, UniProt P35439)

- Ki: 690 nM and 433 nM and 1780 nM and 700 nM and 1730 nM and 1370 nM and 1320 nM and 2420 nM
SMILES: CC12CC3CC(C)(C1)CC(N)(C3)C2
